Laboratory results published in ChEMBL document CHEMBL3351781, “Assessment of antidotal efficacy of cholinesterase reactivators against paraoxon: In vitro reactivation kinetics and physicochemical properties” (2014).

The chains behind the UniProt entries cited, without tags or fusion partners. Residues count along the entry.
UniProt P22303, 32-614 limits assumed: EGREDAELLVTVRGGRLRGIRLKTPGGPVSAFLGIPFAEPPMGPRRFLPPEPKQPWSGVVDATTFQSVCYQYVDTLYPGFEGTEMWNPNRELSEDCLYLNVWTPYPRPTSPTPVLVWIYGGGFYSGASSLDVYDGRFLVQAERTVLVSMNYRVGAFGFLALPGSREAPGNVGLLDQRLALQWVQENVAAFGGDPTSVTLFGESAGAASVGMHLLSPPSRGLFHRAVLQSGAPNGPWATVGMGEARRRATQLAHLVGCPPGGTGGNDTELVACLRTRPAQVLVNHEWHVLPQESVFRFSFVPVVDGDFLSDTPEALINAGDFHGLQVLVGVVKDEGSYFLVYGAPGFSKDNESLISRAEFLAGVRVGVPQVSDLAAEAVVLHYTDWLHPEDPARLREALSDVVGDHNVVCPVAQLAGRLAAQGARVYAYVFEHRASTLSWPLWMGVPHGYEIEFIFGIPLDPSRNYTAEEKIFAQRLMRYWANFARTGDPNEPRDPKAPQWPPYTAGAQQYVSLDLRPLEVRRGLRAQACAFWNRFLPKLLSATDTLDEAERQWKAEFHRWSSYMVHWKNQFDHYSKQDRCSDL

Biological target: Acetylcholinesterase (Homo sapiens, UniProt P22303)
Test: Binding affinity to paraoxon-inhibited AChE (unknown origin)

## C[n+]1ccc(/C=N/O)cc1
  Kd: 96.2 µM
